Values of other authors in article PMC5272823 (Peptides, 2016).

Settings: ref [7]; cited from earlier work

## insulin
  Plasma insulin half-life: 4 to 6 min
